# Literature values in patent US20080200491A1, “1,2-Dihydro-Spiro[3H-Indole-3,4'-Piperidine] Compounds, as Modulators of the Mas Receptor Novel” (priority 2005, published 2008).
# Protein sequences, listed by entry. Tags and fused reporters are not part of them.
# UniProt Q9GZQ6, whole entry, species assumed: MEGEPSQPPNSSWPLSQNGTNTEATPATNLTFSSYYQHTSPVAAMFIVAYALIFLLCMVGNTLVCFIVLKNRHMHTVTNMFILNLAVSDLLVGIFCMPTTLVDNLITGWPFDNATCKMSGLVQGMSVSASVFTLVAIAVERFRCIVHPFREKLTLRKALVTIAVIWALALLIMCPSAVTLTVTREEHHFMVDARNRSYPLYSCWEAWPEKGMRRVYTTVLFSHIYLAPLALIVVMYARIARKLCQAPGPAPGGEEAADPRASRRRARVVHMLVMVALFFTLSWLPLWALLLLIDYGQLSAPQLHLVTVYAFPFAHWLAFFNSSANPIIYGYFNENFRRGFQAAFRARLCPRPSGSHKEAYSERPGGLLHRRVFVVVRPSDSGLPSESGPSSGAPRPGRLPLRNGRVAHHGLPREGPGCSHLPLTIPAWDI
# UniProt Q9Y5X5, whole entry, species assumed: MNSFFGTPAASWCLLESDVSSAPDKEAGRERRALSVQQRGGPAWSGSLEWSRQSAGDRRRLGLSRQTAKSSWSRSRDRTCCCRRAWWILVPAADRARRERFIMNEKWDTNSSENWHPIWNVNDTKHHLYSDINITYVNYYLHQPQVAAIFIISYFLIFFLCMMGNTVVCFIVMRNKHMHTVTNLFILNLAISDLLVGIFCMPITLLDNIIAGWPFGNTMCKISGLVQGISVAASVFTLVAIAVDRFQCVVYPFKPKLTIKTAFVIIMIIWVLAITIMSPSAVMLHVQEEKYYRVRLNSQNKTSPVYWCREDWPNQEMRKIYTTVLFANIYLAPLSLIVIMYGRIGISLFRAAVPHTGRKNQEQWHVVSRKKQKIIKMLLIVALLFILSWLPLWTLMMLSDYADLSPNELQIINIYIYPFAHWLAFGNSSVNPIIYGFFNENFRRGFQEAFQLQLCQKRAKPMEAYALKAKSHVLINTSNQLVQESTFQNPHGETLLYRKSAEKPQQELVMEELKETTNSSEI
# Columns and labels:
# [1] = target: NPFF1 (Homo sapiens, UniProt Q9GZQ6); conditions: Bonini et al. 2000; Elshourbagy et al. 2000; cited from earlier work
# [2] = target: NPFF2 (Homo sapiens, UniProt Q9Y5X5); conditions: Bonini et al. 2000; Elshourbagy et al. 2000; cited from earlier work
substance,measurement,setting,value
"a peptide called NPFF, reported to bind the Mas receptor weakly and NPFF1/NPFF2 with high affinity",Kd,[1],1.3 nM
same,Kd,[2],0.3 nM
